Yeast mating assay 1: variants of the scFv Ab-14

Source: Engelhart et al. 2022 (doi:10.1038/s41597-022-01779-4), MIT Lincoln Laboratory and A-Alpha Bio; data file from the FLAb repository.

Target peptide (SARS-CoV-2 spike, HR2 region): PDVDLGDISGINAS

Ab-14 is the parent antibody, in scFv form: VH, then a 15-residue (Gly4Ser)3 linker, then VL. The light chain is unchanged in all variants.
VH: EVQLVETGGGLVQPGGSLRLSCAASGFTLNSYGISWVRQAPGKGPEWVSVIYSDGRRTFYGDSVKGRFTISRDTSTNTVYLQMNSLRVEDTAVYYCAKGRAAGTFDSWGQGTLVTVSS
VL: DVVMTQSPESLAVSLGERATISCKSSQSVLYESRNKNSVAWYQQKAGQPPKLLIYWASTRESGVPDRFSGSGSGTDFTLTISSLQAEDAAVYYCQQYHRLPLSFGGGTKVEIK

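AAYL49 was designed without a model: most single CDR substitutions and a random sample of double and triple ones. In AlphaSeq, yeast of one mating type display the scFv and yeast of the other type display the target. Pairs that bind mate more often; barcode pairs of the diploids are counted by sequencing. Scores were corrected for input abundance and mapped to Kd with protein pairs of known affinity run in the same pool. There are three technical replicates.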

Each variant is given by its three heavy chain CDRs, as the data file delimits them; those of the parent are GFTLNSYGIS, VIYSDGRRTFYGDSVK, GRAAGTFDS.
The read-out is the apparent dissociation constant on a log10 scale (nM): the lower, the stronger.
Where no diploid with the target was found in that replicate, the entry reads "nd": below detection, most likely a poor binder, though not proof of it.
Empty control strains, which show no peptide, gave a signal in 15% of pairings with library AAYL49; the median was 4.06 and 95% of these signals were weaker than 2.83. No background was subtracted. Also given: how often the same scFv was detected with the empty control strains, with their mean in brackets.

CDR-H1 | CDR-H2 | CDR-H3 | log10 Kd, replicates | control signals
GFTLNSYGIS | TIHYDGRRTFYGDSVK | GRAAGTFDS | nd / nd / 5.11 | 3 of 9 (3.52)
GFTDNSYGNS | VIYSDGRRTFYGDSVK | KRAAGTFDS | nd / nd / nd | 1 of 9 (3.31)
GFTWNSYGIS | VIYSDGRRSFYVDSVK | GRAAGTFDS | 4.90 / 4.67 / 5.02 | 5 of 9 (4.48)
GFTLNSYGIS | VIYSDGRRTFYGDSVK | GRAAGGFRS | 0.40 / 0.53 / 0.43 | 2 of 9 (3.83)
GFTLNSYGFS | VIHSDGRRTFYGDSVK | GRAAWTFDS | nd / nd / nd | 0 of 9
GFTLNAYGIH | VIYSDGRRTFYGDSVK | GRAAGTFDI | 1.41 / 1.23 / 1.23 | 2 of 9 (3.40)
GFTMNSYEIS | VIYSDGRRHFYGDSVK | GRAAGTFDS | 3.74 / 4.31 / 4.91 | 1 of 9 (3.56)
GFTLNRYGIS | VIYSDGRRVFYGDSVE | GRAAGTFDS | 2.92 / 2.80 / 2.68 | 2 of 9 (4.34)
GFTLNAYGIS | VIYADGRRTFYGDSVK | GRAAGSFDS | 1.51 / 1.73 / 1.90 | 1 of 9 (3.97)
GFTRNSYGIS | VIYSDGRRTFYGDSVK | GRAAITFDI | nd / nd / nd | 0 of 9
GYTLNSYGIS | VYYSDGRRTFYADSVK | GRAAGTFDS | nd / nd / nd | 1 of 9 (3.60)
RFTLNSYGIS | VIYSDGRRTFHHDSVK | GRAAGTFDS | 3.07 / 3.45 / 3.18 | 2 of 9 (3.72)
MFTLNSYGIH | VIYSDGRRAFYGDSVK | GRAAGTFDS | 2.42 / 3.46 / nd | 1 of 9 (4.54)
GFTLNSYGIS | VIYSVGRRTWYGDWVK | GRAAGTFDS | nd / nd / nd | 0 of 9
GFTLNSYGIS | VIYSDGRRTFYCDSVK | FPAAGTFDS | 1.51 / 1.95 / 1.66 | 0 of 9
GLTLNSYGIS | VIYSDGRRTFYGDSVK | LRAAGKFDS | 3.45 / 3.20 / 3.46 | 1 of 9 (3.95)
GFTLNSYGIS | VIYSDGRRREYGDSVL | GRAAGTFDS | 2.15 / 1.92 / 2.40 | 0 of 9
GFTLNSYGIS | YIYSDGRRTCYGDSVK | GRAPGTFDS | nd / 5.05 / nd | 5 of 9 (4.41)
HETLNSYGIS | VIYSDGRRTFYGDSVF | GRAAGTFDS | nd / nd / nd | 0 of 9
GWYLNSYGIS | VIYSDGNRTFYGDSVK | GRAAGTFDS | nd / nd / 4.19 | 0 of 9
GFTLNSYGIS | VIYSDGRRTFYGDSVV | GTAAGTNDS | 3.73 / 3.25 / 3.49 | 5 of 9 (4.56)
GFPLNSYGIS | VPYSDFRRTFYGDSVK | GRAAGTFDS | nd / 5.04 / nd | 2 of 9 (3.06)
IFTLMSYGIS | VIYSDGRRWFYGDSVK | GRAAGTFDS | nd / nd / nd | 0 of 9
GFTLNSYGIR | VIYSDGRRTFYGDIVK | GRAAGTFDW | nd / nd / nd | 1 of 9 (3.65)
GFTLNSYGIS | VIYSDGRRTFEGDSVK | GRARGTWDS | nd / nd / nd | 2 of 9 (3.99)
GFTLSSYGIS | VIYSDGRRTFYGDSVK | GDAAGTFDS | nd / nd / nd | 0 of 9
GFTLWSYEIS | VIYSDGRRTFYGDSVK | GRAAGTFRS | nd / nd / nd | 2 of 9 (3.54)
GFTLNSPGIS | VIYSDHRRTFYGDSVK | GHAAGTFDS | nd / nd / nd | 2 of 9 (2.58)
GFTANSYEIS | VIYSDQRRTFYGDSVK | GRAAGTFDS | 4.46 / 3.92 / nd | 3 of 9 (4.36)
GFTLNSYGIS | VIYSDGRRTFYGDIVK | PIAAGTFDS | 6.94 / 4.54 / 4.59 | 8 of 9 (4.90)
GFTLNSYGIS | VIPSDGRRTFYGDSVK | GRDAGTFIS | nd / nd / nd | 4 of 9 (4.52)
GFTLNSYGIS | VIYHTGRRTFYGDSVK | GRAAGTFDN | nd / nd / 5.48 | 3 of 9 (4.93)
GFTLNSYGIS | NIYSDGRREFHGDSVK | GRAAGTFDS | 4.15 / nd / nd | 0 of 9
GLTLNSYGIS | VIYSDGRRTFYGDMVK | GRAAGTFDS | nd / 3.87 / nd | 0 of 9
GFTLNSCGIS | NIYSDGRRTFYGDSVK | GRAAGTFQS | nd / nd / nd | 4 of 9 (4.18)
GFSLNSYGIS | VIYSDGRRTFYGESVK | GRAAGTFDR | 1.22 / 2.02 / 1.72 | 0 of 9
GFTLNSYAIS | AIYSDGRRTFYGDSIK | GRAAGTFDS | nd / 5.58 / 3.40 | 2 of 9 (4.27)
GFTLNSYGIS | VIYSDGRRIFYSDSVK | GRAAKTFDS | 2.77 / 2.69 / 4.34 | 0 of 9
GFTTNSYGIS | VHYSDGRRTFYGRSVK | GRAAGTFDS | nd / nd / nd | 0 of 9
GFTLNSYGIS | VIYSDGRRTFYQDSVK | GRACGDFDS | nd / nd / nd | 0 of 9
GFTLNDYGIS | VIYSDGRWTFYGDSVE | GRAAGTFDS | nd / nd / nd | 0 of 9
GFTVNSYGIS | VIYSIGRFTFYGDSVK | GRAAGTFDS | nd / nd / nd | 1 of 9 (3.40)
GFTLQCYGIS | VIYSDGRRTFYGISVK | GRAAGTFDS | nd / nd / 4.93 | 1 of 9 (2.88)
GFTLNSYGRS | VIYSDGRRTFYGDSVK | GRDAGTFCS | 3.97 / nd / 4.10 | 3 of 9 (4.14)
GFTLNSYPIS | VIKSDGRRTFYGDSKK | GRAAGTFDS | nd / nd / nd | 2 of 9 (4.31)
GNTLNSYGIS | VIYSDGRRTNYGDSVK | GRAAMTFDS | nd / 3.24 / 5.95 | 1 of 9 (3.28)
GFHLNCYGIS | VIYSDGKRTFYGDSVK | GRAAGTFDS | 2.41 / 2.55 / 2.30 | 6 of 9 (5.11)

The 3 strongest on average among those seen in every replicate, once more:

CDR-H1 | CDR-H2 | CDR-H3 | log10 Kd, replicates | control signals
GFTLNSYGIS | VIYSDGRRTFYGDSVK | GRAAGGFRS | 0.40 / 0.53 / 0.43 | 2 of 9 (3.83)
GFTLNAYGIH | VIYSDGRRTFYGDSVK | GRAAGTFDI | 1.41 / 1.23 / 1.23 | 2 of 9 (3.40)
GFSLNSYGIS | VIYSDGRRTFYGESVK | GRAAGTFDR | 1.22 / 2.02 / 1.72 | 0 of 9